According to patent publication US20250353898A1, “SERPIN PEPTIDE DERIVATIVES AND METHODS OF USING THE SAME” (priority 2022, published 2025):

Test system: NFκB reporter cells or IMG microglial cells
Assay: Cytotoxicity assay (CellTiter-Glo Luminescent Cell Viability Assay)
Conditions: up to 12.5 μg/ml, 24 hours, NFκB reporter cells and IMG microglial cells, FIG. 11

For “Ac- RRRKFT[Nal]]LD (cyclic) [Peptide A3-7]”, the cytotoxic effects was “no cytotoxic effects”.
